According to patent US8268823B2, “Medical use of triazine derivatives” (University of Greenwich, priority 2006, dated 2012):

Test system: sodium channel
Test: veratrine-evoked uptake of [14C]guanidine into rat forebrain synaptosomes ([14C]guanidine flux)
Assay type: biochemical

Nc1nnc(-c2cccc(Cl)c2Cl)c(N)n1 [Example 1, 5(3)-amino-6-(2,3-dichlorophenyl)-2,3(2,5)-dihydro-3(5)-imino-1,2,4-triazine, reference compound]
Hill (uptake of [14C]guanidine): 0.93 and 0.71

Where “and” joins values, the source holds several entries; their conditions need not be identical. Equal values may be shown once.
